Measurements reported in US5516515A, “Separation of alpha interferon receptor proteins and antibodies therefor” (priority 1990, dated 1996).

Columns and labels:
[1] = system: human HEp-2 cells challenged with vesticular stomatitis virus (Indiana Strain); conditions: reported for product purchased from Lee BioMolecular Research Inc.; cited from earlier work
[2] = target: T1, Daudi cell receptor sites (Homo sapiens, UniProt P17181+P48551); assay: Competition experiments: displacement of 125I-IFN-alpha-2 from Daudi cells; assay type: binding; conditions: 100 fold excess of unlabeled IFN
T1 construct: endogenous in cells; host or cells: Daudi (human lymphoblastoid) cells
T1 sequence (P48551 27-515): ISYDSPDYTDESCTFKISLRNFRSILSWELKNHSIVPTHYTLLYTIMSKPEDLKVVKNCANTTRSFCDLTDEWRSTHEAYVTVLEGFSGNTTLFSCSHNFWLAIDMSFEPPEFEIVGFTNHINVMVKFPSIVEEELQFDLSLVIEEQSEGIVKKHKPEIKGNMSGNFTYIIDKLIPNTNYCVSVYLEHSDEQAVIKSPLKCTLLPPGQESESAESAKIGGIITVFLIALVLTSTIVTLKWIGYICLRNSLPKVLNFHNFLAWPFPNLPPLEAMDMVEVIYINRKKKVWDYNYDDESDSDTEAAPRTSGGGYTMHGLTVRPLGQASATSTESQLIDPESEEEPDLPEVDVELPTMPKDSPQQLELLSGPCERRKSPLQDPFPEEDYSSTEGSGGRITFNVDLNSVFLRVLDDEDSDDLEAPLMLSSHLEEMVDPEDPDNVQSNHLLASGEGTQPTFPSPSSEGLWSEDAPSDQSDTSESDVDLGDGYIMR
T1 sequence (P17181 28-557): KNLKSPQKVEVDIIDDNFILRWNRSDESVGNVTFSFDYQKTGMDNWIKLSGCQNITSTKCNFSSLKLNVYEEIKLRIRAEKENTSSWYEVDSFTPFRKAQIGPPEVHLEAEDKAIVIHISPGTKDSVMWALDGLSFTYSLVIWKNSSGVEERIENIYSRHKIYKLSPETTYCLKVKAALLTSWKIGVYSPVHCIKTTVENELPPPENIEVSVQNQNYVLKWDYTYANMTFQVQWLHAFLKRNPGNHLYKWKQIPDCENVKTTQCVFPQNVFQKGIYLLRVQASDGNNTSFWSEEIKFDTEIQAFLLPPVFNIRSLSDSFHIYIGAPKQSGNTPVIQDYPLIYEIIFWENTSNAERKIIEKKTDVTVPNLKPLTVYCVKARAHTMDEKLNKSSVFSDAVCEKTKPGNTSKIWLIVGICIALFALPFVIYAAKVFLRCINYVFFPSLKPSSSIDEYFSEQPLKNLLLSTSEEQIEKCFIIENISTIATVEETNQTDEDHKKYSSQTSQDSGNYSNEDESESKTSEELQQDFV

[3] = system: human HEp-2 cells challenged with vesticular stomatitis virus (Indiana Strain); assay: cytopathic effect (CPE) assay of interferon biological (antiviral) activity; assay type: cell-based
Procedure: Ultrapure natural interferon alpha was prepared by incubating human peripheral blood cultures with Sendai virus. The culture supernatant was purified over an anti-interferon alpha column (NK-2 sepharose). […] The biological activity of interferons alpha, beta and gamma were determined by the cytopathic effect (CPE) assay on human HEp-2 cells challenged with vesticular stomatitis virus (Indiana Strain). All titers were calibrated against the NIH reference standards for alpha (#Ga23-902-503) and gamma (Gg 23-901-530) interferons. All titers are expressed as NIH reference units.

**Q.** Which reported specific activity [1] does the source give for “IFN beta: Human fibroblast IFN beta purchased from Lee BioMolecular Research Inc.” here?
**A.** 4.7×10^5 U/mg of protein

**Q.** And the “reduction in the binding of 125I-IFN-alpha2 for Daudi cells” value [2]?
**A.** more than 80%

**Q.** For “IFN-alpha-2: Recombinant human IFN-alpha-2 synthesized in yeast and purified by immuno affinity chromatography”, which specific activity ([3]; CPE assay, NIH reference units) is on record?
**A.** 2×10^8 U/rag of protein

**Q.** Which “original antiviral activity retained after iodination” value ([3]; after labeling with 125I-Bolton-Hunter reagent) does the source give for “^125 I-IFN-alpha-2: IFN-alpha-2 labeled with 125I-Bolton-Hunter reagent [reference compound]” here?
**A.** > 95%
